The values that follow come from ChEMBL document CHEMBL3351655, “Scaffold decoration at positions 5 and 8 of 1,2,4-triazolo[1,5-c]pyrimidines to explore the antagonist profiling on adenosine receptors: a preliminary structure-activity relationship study” (J Med Chem, 2014).

The target in this assay is T1, Adenosine receptor A2b (Homo sapiens) (UniProt P29275).
T1 sequence (whole entry): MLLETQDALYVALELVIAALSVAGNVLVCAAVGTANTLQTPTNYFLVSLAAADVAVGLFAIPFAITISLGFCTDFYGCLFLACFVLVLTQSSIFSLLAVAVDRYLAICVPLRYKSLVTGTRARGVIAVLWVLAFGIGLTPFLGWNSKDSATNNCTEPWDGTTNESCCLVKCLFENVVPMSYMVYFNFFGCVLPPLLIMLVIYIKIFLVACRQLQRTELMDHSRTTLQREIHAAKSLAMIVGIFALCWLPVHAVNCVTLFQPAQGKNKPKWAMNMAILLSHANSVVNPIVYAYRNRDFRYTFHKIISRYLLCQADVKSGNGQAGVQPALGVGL
The experiment in a line: Binding affinity to human adenosine A2B receptor.

`Nc1nc(NCCc2ccc(O)cc2)nc2nc(-c3ccco3)nn12` returned an Activity of 28 nM.
